Values belong to the binder of their own block, whether it stands above or below them.
B1: GST-14-3-3η:η homodimer (natural protein, UniProt Q04917 1-246, looked up)
chain: MGDREQLLQRARLAEQAERYDDMASAMKAVTELNEPLSNEDRNLLSVAYKNVVGARRSSWRVISSIEQKTMADGNEKKLEKVKAYREKIEKELETVCNDVLSLLDKFLIKNCNDFQYESKVFYLKMKGDYYRYLAEVASGEKKNSVVEASEAAYKEAFEISKEQMQPTHPIRLGLALNFSVFYYEIQNAPEQACLLAKQAFDDAIAELDTLNEDSYKDSTLIMQLLRDNLTLWTSDQQDEEAGEGN
B2: GST-14-3-3β:β homodimer (natural protein, UniProt P31946 1-246, looked up)
chain: MTMDKSELVQKAKLAEQAERYDDMAAAMKAVTEQGHELSNEERNLLSVAYKNVVGARRSSWRVISSIEQKTERNEKKQQMGKEYREKIEAELQDICNDVLELLDKYLIPNATQPESKVFYLKMKGDYFRYLSEVASGDNKQTTVSNSQQAYQEAFEISKKEMQPTHPIRLGLALNFSVFYYEILNSPEKACSLAKTAFDEAIAELDTLNEESYKDSTLIMQLLRDNLTLWTSENQGDEGDAGEGEN
B3: GST-14-3-3γ:γ homodimer (natural protein, UniProt P61981 1-247, looked up)
chain: MVDREQLVQKARLAEQAERYDDMAAAMKNVTELNEPLSNEERNLLSVAYKNVVGARRSSWRVISSIEQKTSADGNEKKIEMVRAYREKIEKELEAVCQDVLSLLDNYLIKNCSETQYESKVFYLKMKGDYYRYLAEVATGEKRATVVESSEKAYSEAHEISKEHMQPTHPIRLGLALNYSVFYYEIQNAPEQACHLAKTAFDDAIAELDTLNEDSYKDSTLIMQLLRDNLTLWTSDQQDDDGGEGNN
B5: GST-14-3-3ζ:ζ homodimer (natural protein, UniProt P63104 1-245, looked up)
chain: MDKNELVQKAKLAEQAERYDDMAACMKSVTEQGAELSNEERNLLSVAYKNVVGARRSSWRVVSSIEQKTEGAEKKQQMAREYREKIETELRDICNDVLSLLEKFLIPNASQAESKVFYLKMKGDYYRYLAEVAAGDDKKGIVDQSQQAYQEAFEISKKEMQPTHPIRLGLALNFSVFYYEILNSPEKACSLAKTAFDEAIAELDTLSEESYKDSTLIMQLLRDNLTLWTSDTQGDEAEAGEGGEN
B6: Ser19-phosphorylated human tyrosine hydroxylase 1 (enzyme)
chain: not shown
modifications: phosphoserine at 19 (by PRAK; 0.5 phosphates per subunit in the SPR experiments, 0.2-0.8 overall)

What was measured:
Settings in all cases: both partners purified
[1] = target: B6; test: SPR; Biacore 3000; GST-14-3-3 dimers held by GST capture, TH-pS19 flowed over; 25 °C, HBS-P buffer, 30 μl/min; Kd calculated as kd/ka
[2] = target: B6; test: SPR; Biacore 3000; 14-3-3ε:ε immobilised by direct amine coupling (10 mM Na-acetate, pH 5.4), TH-pS19 flowed over; 25 °C, HBS-P buffer, 30 μl/min; Kd calculated as kd/ka
14-3-3ε:β heterodimer = target: T1, 14-3-3ε:β heterodimer (UniProt P62258 1-255; P31946 1-246); test: SPR; Biacore 3000; GST-14-3-3 dimers held by GST capture, TH-pS19 flowed over; 25 °C, HBS-P buffer, 30 μl/min; Kd calculated as kd/ka
T1 construct: 14-3-3ε (YWHAE), as the chain of m2; 14-3-3β (YWHAB), as the chain of m6; Held by GST capture in SPR; source: E. coli, each purified; not shown: GST, N-terminal, kept; copies: 1 + 1
T1 sequence (looked up) 1: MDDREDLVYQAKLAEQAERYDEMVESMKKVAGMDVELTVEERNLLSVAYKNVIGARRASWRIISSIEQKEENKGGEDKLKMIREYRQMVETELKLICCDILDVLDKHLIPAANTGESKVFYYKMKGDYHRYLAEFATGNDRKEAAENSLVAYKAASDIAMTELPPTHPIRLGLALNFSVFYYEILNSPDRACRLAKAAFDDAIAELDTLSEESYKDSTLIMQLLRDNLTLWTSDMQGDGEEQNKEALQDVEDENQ
T1 sequence (looked up) 2: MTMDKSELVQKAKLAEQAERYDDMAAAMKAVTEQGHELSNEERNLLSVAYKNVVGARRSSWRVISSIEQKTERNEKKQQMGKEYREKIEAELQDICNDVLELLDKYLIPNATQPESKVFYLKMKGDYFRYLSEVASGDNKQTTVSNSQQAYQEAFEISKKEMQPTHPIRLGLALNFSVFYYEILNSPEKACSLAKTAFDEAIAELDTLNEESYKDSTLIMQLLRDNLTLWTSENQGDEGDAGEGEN

14-3-3ε:γ heterodimer = target: T2, 14-3-3ε:γ heterodimer (UniProt P62258 1-255; P61981 1-247); test: as above
T2 construct: 14-3-3ε (YWHAE), as the chain of m2; 14-3-3γ (YWHAG), as the chain of m3; Held by GST capture in SPR; source: E. coli, each purified; not shown: GST, N-terminal, kept; copies: 1 + 1
T2 sequence (looked up) 1: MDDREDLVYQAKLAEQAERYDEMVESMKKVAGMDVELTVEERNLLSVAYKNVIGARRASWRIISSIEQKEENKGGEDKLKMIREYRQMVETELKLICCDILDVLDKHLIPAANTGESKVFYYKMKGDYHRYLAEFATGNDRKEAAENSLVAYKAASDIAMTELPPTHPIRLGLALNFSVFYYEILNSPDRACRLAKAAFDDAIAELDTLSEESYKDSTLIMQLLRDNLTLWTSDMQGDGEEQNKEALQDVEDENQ
T2 sequence (looked up) 2: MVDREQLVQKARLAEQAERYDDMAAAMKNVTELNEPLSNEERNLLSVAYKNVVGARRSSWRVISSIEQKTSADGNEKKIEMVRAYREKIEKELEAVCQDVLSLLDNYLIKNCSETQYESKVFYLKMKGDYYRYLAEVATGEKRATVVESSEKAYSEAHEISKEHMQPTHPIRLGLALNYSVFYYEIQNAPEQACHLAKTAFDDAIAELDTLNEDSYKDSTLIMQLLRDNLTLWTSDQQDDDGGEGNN

GST-14-3-3ζ:ζ homodimer = target: B5; test: as above
GST-14-3-3η:η homodimer = target: B1; test: as above
GST-14-3-3γ:γ homodimer = target: B3; test: as above
14-3-3ε:η heterodimer = target: T3, 14-3-3ε:η heterodimer (UniProt P62258 1-255; Q04917 1-246); test: as above
T3 construct: 14-3-3ε (YWHAE), as the chain of m2; 14-3-3η (YWHAH), as the chain of m5; Held by GST capture in SPR; source: E. coli, each purified; not shown: GST, N-terminal, kept; copies: 1 + 1
T3 sequence (looked up) 1: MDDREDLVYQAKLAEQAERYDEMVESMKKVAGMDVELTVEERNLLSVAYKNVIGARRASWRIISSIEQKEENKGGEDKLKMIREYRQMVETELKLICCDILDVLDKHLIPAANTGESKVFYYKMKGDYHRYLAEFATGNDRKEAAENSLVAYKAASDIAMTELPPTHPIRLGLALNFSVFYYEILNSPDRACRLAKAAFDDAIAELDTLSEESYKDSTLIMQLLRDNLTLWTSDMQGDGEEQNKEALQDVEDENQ
T3 sequence (looked up) 2: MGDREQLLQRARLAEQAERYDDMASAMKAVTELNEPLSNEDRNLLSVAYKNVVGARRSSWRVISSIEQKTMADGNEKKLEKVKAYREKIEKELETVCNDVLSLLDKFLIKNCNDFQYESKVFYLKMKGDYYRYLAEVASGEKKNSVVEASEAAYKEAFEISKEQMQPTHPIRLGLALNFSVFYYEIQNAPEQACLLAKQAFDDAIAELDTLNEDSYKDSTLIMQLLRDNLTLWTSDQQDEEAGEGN

14-3-3ε:ζ heterodimer = target: T4, 14-3-3ε:ζ heterodimer (UniProt P62258 1-255; P63104 1-245); test: as above
T4 construct: 14-3-3ε (YWHAE), as the chain of m2; 14-3-3ζ (YWHAZ), as the chain of m4; Held by GST capture in SPR; thrombin-cleaved 14-3-3 in the activity assays; also called 14-3-3ζ:ε; source: E. coli, each purified; not shown: GST, N-terminal, kept; copies: 1 + 1
T4 sequence (looked up) 1: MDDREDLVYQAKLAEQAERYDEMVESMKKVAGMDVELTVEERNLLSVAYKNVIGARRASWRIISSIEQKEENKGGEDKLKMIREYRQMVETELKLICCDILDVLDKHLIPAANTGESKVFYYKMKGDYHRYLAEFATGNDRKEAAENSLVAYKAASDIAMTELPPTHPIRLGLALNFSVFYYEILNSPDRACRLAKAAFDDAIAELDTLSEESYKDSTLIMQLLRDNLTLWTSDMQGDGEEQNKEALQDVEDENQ
T4 sequence (looked up) 2: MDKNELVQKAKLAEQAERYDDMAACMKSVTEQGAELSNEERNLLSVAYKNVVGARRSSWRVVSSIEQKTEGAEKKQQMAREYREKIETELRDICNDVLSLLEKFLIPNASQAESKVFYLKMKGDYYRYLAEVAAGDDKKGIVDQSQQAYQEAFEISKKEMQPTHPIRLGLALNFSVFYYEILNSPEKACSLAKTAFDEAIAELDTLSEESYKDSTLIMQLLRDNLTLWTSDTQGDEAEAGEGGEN

GST-14-3-3β:β homodimer = target: B2; test: as above

Binder: B1
Kd [1]: 1.6 nM
koff [1]: 0.00044 s⁻¹
kon [1]: 270000 M⁻¹ s⁻¹

Binder: B2
Kd [1]: 1.4 nM
koff [1]: 0.0003 s⁻¹
kon [1]: 220000 M⁻¹ s⁻¹

Binder: B3
Kd [1]: 3 nM
koff [1]: 0.00094 s⁻¹
kon [1]: 310000 M⁻¹ s⁻¹

Kd [2]: 2.8 nM
koff [2]: 0.00072 s⁻¹
kon [2]: 260000 M⁻¹ s⁻¹
B4: 14-3-3ε:ε homodimer (His-tagged) (natural protein, UniProt P62258 1-255, looked up)
chain: MDDREDLVYQAKLAEQAERYDEMVESMKKVAGMDVELTVEERNLLSVAYKNVIGARRASWRIISSIEQKEENKGGEDKLKMIREYRQMVETELKLICCDILDVLDKHLIPAANTGESKVFYYKMKGDYHRYLAEFATGNDRKEAAENSLVAYKAASDIAMTELPPTHPIRLGLALNFSVFYYEILNSPDRACRLAKAAFDDAIAELDTLSEESYKDSTLIMQLLRDNLTLWTSDMQGDGEEQNKEALQDVEDENQ
notes: 14-3-3ε (YWHAE); Plasmid from S.O. Døskeland; Immobilised by direct amine coupling in SPR; also called 14-3-3Ɛ; source: E. coli, pET11, purified (Ni-NTA)

Binder: B5
Kd [1]: 2.9 nM
koff [1]: 0.00038 s⁻¹
kon [1]: 130000 M⁻¹ s⁻¹

Binder: B6
Kd (14-3-3ε:β heterodimer): 2.5 nM
koff (14-3-3ε:β heterodimer): 0.0005 s⁻¹
kon (14-3-3ε:β heterodimer): 200000 M⁻¹ s⁻¹
t 0.5 (dissociation half time) (14-3-3ε:β heterodimer): 23 min
Kd (14-3-3ε:γ heterodimer): 2.5 nM
koff (14-3-3ε:γ heterodimer): 0.0005 s⁻¹
kon (14-3-3ε:γ heterodimer): 200000 M⁻¹ s⁻¹
t 0.5 (dissociation half time) (14-3-3ε:γ heterodimer): 23 min
t 0.5 (dissociation half time) (GST-14-3-3ζ:ζ homodimer): 30 min
t 0.5 (dissociation half time) (GST-14-3-3η:η homodimer): 26 min
t 0.5 (dissociation half time) (GST-14-3-3γ:γ homodimer): 12 min
Kd (14-3-3ε:η heterodimer): 1.7 nM
koff (14-3-3ε:η heterodimer): 0.00048 s⁻¹
kon (14-3-3ε:η heterodimer): 290000 M⁻¹ s⁻¹
t 0.5 (dissociation half time) (14-3-3ε:η heterodimer): 24 min
Kd (14-3-3ε:ζ heterodimer): 3.8 nM
koff (14-3-3ε:ζ heterodimer): 0.00065 s⁻¹
kon (14-3-3ε:ζ heterodimer): 170000 M⁻¹ s⁻¹
t 0.5 (dissociation half time) (14-3-3ε:ζ heterodimer): 18 min
t 0.5 (dissociation half time) (GST-14-3-3β:β homodimer): 38 min
